The nature of series [1]: Permeability assessed as mean mass balance at 200 uM incubated for 4 hrs by PAMPA method. (In PAMPA a lipid-coated filter parts donor from acceptor wells.)
A short description of series [2]: Permeability at 200 uM incubated for 4 hrs by PAMPA method.
In series [3] the target is T1, Delta-type opioid receptor (Homo sapiens, UniProt P41143). As to the kind of experiment: Antagonist activity at human DOR expressed in CHO cell membranes assessed as reduction in SNC80-induced response incubated for 1 hr by [35S]-GTPgammaS coupling assay. On the technique in general: Binding of GTPγS marks nucleotide exchange on a G protein.
For series [4], the target named is T2, Mu-type opioid receptor (Homo sapiens, UniProt P35372). Kind of series: Agonist activity at human MOR expressed in CHO cell membranes incubated for 1 hr by [35S]-GTPgammaS coupling assay.
For series [5], the target named is T3, Kappa-type opioid receptor (Homo sapiens, UniProt P41145). Kind of series: Agonist activity at human KOR expressed in CHO cell membranes incubated for 1 hr by [35S]-GTPgammaS coupling assay.
Series [6] has as its target T2, Mu-type opioid receptor. As to the kind of experiment: Displacement of [3H]-diprenorphine from human MOR expressed in CHO cell membranes incubated for 1 hr by scintillation counting method. In general terms: Loss of bound radioactivity is the signal in a displacement assay; it reports binding, not function.
In series [7] the target is T1, Delta-type opioid receptor. Kind of series: Agonist activity at human DOR expressed in CHO cell membranes incubated for 1 hr by [35S]-GTPgammaS coupling assay.
Series [8] addresses T1, Delta-type opioid receptor. As to the kind of experiment: Displacement of [3H]-diprenorphine from human DOR expressed in CHO cell membranes incubated for 1 hr by scintillation counting method.
Series [9] deals with T3, Kappa-type opioid receptor. As to the kind of experiment: Displacement of [3H]-diprenorphine from human KOR expressed in CHO cell membranes incubated for 1 hr by scintillation counting method.
Series [10] relates to Mus musculus. Kind of series: Antinociceptive activity in 2.1 umol/kg, ip opioid antagonist naloxone methiodide pre-treated CD1 mouse assessed as reduction in thermal nociception at 1.5 umol/kg, iv dosed 15 mins before test and measured after 15 to 120 mins post compound dose by hot plate test relative to control.
The nature of series [11]: Unbound fraction in CD1 mouse plasma at 2.1 mg/kg, sc measured over 2 hrs by LC/MS/MS analysis. Particulars: in vivo, strain CD1, Plasma.
Series [12] is described as follows: Stability in human plasma assessed as half life at 5 uM at 37 degC measured up to 250 mins by LC-MS analysis.
Series [13] is described as follows: Total drug level in CD1 mouse brain at 2.1 mg/kg, sc measured over 2 hrs by LC/MS/MS analysis. Particulars: in vivo, strain CD1, Brain.
Series [14] is described as follows: Tmax in CD1 mouse at 2.1 mg/kg, sc measured over 2 hrs by LC/MS/MS analysis. Particulars: in vivo.
Series [15] is described as follows: AUC (infinity) in CD1 mouse at 2.1 mg/kg, sc measured over 2 hrs by LC/MS/MS analysis. To be noted: in vivo.
The nature of series [16]: Half life in CD1 mouse at 2.1 mg/kg, sc measured over 2 hrs by LC/MS/MS analysis. Particulars: in vivo.
Series [17] can be described thus: Stability in human plasma assessed as parent compound remaining level at 5 uM at 37 degC measured at 240 mins by LC-MS analysis. To be noted: 4 h.
Series [18] can be described thus: Stability in human plasma assessed as elimination rate at 5 uM at 37 degC measured up to 250 mins by LC-MS analysis.
Series [19] can be described thus: Cmax in CD1 mouse at 2.1 mg/kg, sc measured over 2 hrs by LC/MS/MS analysis. To be noted: in vivo.
A short description of series [20]: Total drug level in CD1 mouse plasma at 2.1 mg/kg, sc measured over 2 hrs by LC/MS/MS analysis. Particulars: read-out: Cp, in vivo, strain CD1, Plasma.

Amino acid sequences for entries named in this document (tags omitted). A change or cut given only in a name is not applied to a line headed by its entry.
UniProt P41143, whole entry, looked up: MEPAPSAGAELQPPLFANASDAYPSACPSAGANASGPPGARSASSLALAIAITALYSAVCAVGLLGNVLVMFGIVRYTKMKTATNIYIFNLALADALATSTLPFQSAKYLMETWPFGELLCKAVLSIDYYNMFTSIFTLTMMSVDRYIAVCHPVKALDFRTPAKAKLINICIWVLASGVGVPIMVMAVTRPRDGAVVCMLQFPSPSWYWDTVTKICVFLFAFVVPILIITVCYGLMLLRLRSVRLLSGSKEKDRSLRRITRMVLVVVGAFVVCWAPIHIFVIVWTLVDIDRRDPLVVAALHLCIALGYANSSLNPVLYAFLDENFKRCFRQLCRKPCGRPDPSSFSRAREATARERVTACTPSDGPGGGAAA
UniProt P35372, whole entry, looked up: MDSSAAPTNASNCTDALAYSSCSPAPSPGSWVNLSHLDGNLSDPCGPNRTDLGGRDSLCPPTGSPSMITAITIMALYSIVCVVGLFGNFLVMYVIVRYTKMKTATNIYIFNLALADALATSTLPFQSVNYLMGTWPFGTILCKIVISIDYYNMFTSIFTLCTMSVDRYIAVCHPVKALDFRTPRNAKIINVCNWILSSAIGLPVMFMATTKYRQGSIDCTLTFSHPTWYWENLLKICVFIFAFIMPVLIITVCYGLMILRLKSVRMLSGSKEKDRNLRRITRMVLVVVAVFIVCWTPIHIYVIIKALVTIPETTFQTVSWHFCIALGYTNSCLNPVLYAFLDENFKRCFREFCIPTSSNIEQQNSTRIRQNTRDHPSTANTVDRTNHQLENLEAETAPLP
UniProt P41145: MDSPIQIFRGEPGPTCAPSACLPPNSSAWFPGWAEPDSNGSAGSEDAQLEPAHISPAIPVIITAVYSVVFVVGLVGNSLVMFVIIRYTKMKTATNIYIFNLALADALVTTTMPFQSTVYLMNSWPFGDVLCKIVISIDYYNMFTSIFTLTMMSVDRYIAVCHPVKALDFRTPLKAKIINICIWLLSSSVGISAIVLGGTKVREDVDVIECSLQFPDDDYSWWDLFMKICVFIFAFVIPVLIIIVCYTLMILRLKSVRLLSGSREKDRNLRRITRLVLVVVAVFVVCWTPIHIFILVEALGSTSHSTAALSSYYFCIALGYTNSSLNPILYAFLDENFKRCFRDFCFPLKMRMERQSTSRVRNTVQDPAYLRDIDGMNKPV

Regarding `Cn1c(=O)c2[nH]cnc2n(C)c1=O.O`, in series [1], the Activity is 94.5%.

In turn, `Cc1cc(O)cc(C)c1C[C@H](N)C(=O)N[C@@H]1CCCCNC(=O)C[C@@H](C(N)=O)NC(=O)[C@@H](Cc2ccccc2)CC(=O)[C@H](Cc2ccc(C(F)(F)F)cc2)NC1=O` came in with a Peff in series [2] of less than 0.58 ×10⁻⁶ cm/s. Further, in series [1], the Activity came out at 95.8%.

Usually IC50 stands for the concentration at which inhibition is half-maximal. The EC50 is the concentration at which the effect is half-maximal. Lower therefore signals greater potency. The Ki is the dissociation constant of the complex between target and ligand, obtained from inhibition or displacement. With `N[C@@H](Cc1ccc(O)cc1)C(=O)N[C@@H]1CSSC[C@@H](NC(=O)[C@@H](N)Cc2ccc(O)cc2)C(=O)NCC(=O)N[C@@H](Cc2ccc(F)cc2)C(=O)N2CCN(CC2)C(=O)[C@H](Cc2ccc(F)cc2)NC(=O)CNC1=O`, the IC50 in series [3] was found to be 404 nM. Also, the EC50 was determined as 6.2 nM in [4], 9.7 nM in [5] and 4 nM in [7]. The Ki in series [6] stood at 83.7 nM; in series [8] it was 31.4 nM; in [9] it was 138 nM.

With `N[C@@H](Cc1ccc(O)cc1)C(=O)N[C@@H]1CSCc2ccccc2CSC[C@@H](NC(=O)[C@@H](N)Cc2ccc(O)cc2)C(=O)NCC(=O)N[C@@H](Cc2ccc(F)cc2)C(=O)NNC(=O)[C@H](Cc2ccc(F)cc2)NC(=O)CNC1=O`, in series [3], the IC50 was found to be 8.9 nM. Moreover, the EC50 stood at 7.5 nM in [4], 806 nM in [5] and 142 nM in series [7]. Also, the inhibitory constant (Ki) in series [6] stood at 15.9 nM; in [8] it was 4.94 nM; in [9], 293 nM.

For the compound `N[C@@H](Cc1ccc(O)cc1)C(=O)N[C@@H]1CSCc2ccccc2CSC[C@@H](NC(=O)[C@@H](N)Cc2ccc(O)cc2)C(=O)NCC(=O)N[C@@H](Cc2ccc(F)cc2)C(=O)N2CCN(CC2)C(=O)[C@H](Cc2ccc(F)cc2)NC(=O)CNC1=O.O=C(O)C(F)(F)F.O=C(O)C(F)(F)F`, the MPE in series [10] was less than 25%.

Regarding `N[C@@H](Cc1ccc(O)cc1)C(=O)N[C@@H]1CSCc2ccccc2CSC[C@@H](NC(=O)[C@@H](N)Cc2ccc(O)cc2)C(=O)NCC(=O)N[C@@H](Cc2ccc(F)cc2)C(=O)N2CCN(CC2)C(=O)[C@H](Cc2ccc(F)cc2)NC(=O)CNC1=O`, the EC50 was 3.4 nM in series [4], 25.9 nM in series [5] and 4.3 nM in [7]. Moreover, the Ki in series [6] was found to be 22.8 nM; in [8], 7.88 nM; in series [9], 121 nM.

For orientation: Tmax means the time at which the peak concentration occurs. Broadly, the AUC is concentration integrated over time. As to `Cc1cc(O)cc(C)c1C[C@H](N)C(=O)N[C@@H]1CSCc2ccccc2CSC[C@@H](NC(=O)[C@@H](N)Cc2c(C)cc(O)cc2C)C(=O)NCC(=O)N[C@@H](Cc2ccc(F)cc2)C(=O)NNC(=O)[C@H](Cc2ccc(F)cc2)NC(=O)CNC1=O.O=C(O)C(F)(F)F.O=C(O)C(F)(F)F`, the Fu in [11] was 0.98. The t1/2 is more than 4 h in [12] and 0.513 h in series [16]. The compound further showed a Peff in series [2] of less than 0.587 ×10⁻⁶ cm/s. This compound also gave a Drug uptake in [13] of 5 ng/g. In addition, the Tmax in [14] stood at 4.98 min. This compound yielded an AUC in [15] of 0.433 µM·h. In addition, in series [17], the Stability was 88.1%. Moreover, the Kel in series [18] amounted to 8.33e-06 s⁻¹. Also, the Activity in series [1] is 97.4%.

With `N[C@@H](Cc1ccc(O)cc1)C(=O)N[C@@H]1CSCc2ccccc2CSC[C@@H](NC(=O)[C@@H](N)Cc2ccc(O)cc2)C(=O)NCC(=O)N[C@@H](Cc2ccc(F)cc2)C(=O)NNC(=O)[C@H](Cc2ccc(F)cc2)NC(=O)CNC1=O.O=C(O)C(F)(F)F.O=C(O)C(F)(F)F`, the t1/2 in series [12] is more than 4 h. The Peff in [2] was determined as 2.16 ×10⁻⁶ cm/s. In addition, the Stability in [17] is 91.7%. Also, the Kel in series [18] stood at 6.67e-06 s⁻¹. The Activity in series [1] was 103%.

Turning to `C[C@@H](NCC(=O)N[C@@H](Cc1ccc(F)cc1)C(=O)N1CCN(C(=O)[C@H](Cc2ccc(F)cc2)NC(=O)CNC(=O)[C@@H](C)NC(=O)[C@@H](N)Cc2ccc(O)cc2)CC1)C(=O)N[C@@H](Cc1ccc(O)cc1)C(N)=O`, in series [12], the t1/2 is more than 4 h. Further, the Peff in series [2] stood at 0.693 ×10⁻⁶ cm/s. The Stability in [17] stood at 96.1%. For the same compound, the Kel in [18] stood at 3.33e-06 s⁻¹. The Activity in series [1] was determined as 98.4%.

What is called Cmax is the maximum level reached in the sampled fluid or tissue. For the compound `Cc1cc(O)cc(C)c1C[C@H](N)C(=O)N[C@@H]1CSCc2ccccc2CSC[C@@H](NC(=O)[C@@H](N)Cc2c(C)cc(O)cc2C)C(=O)NCC(=O)N[C@@H](Cc2ccc(F)cc2)C(=O)NNC(=O)[C@H](Cc2ccc(F)cc2)NC(=O)CNC1=O`, the EC50 in series [4] was less than 0.51 nM; in series [5], 46.7 nM; in [7] it was 8.1 nM. In addition, the Ki in series [6] amounted to 13.8 nM; in series [8], 8.2 nM; in series [9] it was 76.7 nM. Moreover, in [19], the Cmax worked out at 548 nM. In addition, in series [20], the concentration stood at 10 nM.

Take `CC1CC(OC(=O)C(O)c2ccccc2)CC(C)(C)N1C` (centres undefined): in series [12], the t1/2 was found to be 1.31 h. The Kel in series [18] was 0.000147 s⁻¹.

Values taken from ChEMBL document CHEMBL4402550, “Potent, Efficacious, and Stable Cyclic Opioid Peptides with Long Lasting Antinociceptive Effect after Peripheral Administration” (2020).
